Test system: critically ill patients with COVID-19 infection

Compound: N[C@@H](Cc1cc(I)c(Oc2ccc(O)c(I)c2)c(I)c1)C(=O)O [T3, L-triiodothyronine]
- right ventricular (RV) function (48 hours): unexpectedly improved RV function
- Tricuspid Annular Plane Systolic Excursion (TAPSE) (after T3 administration): upward trend
- liver function by AST measurements (first 24 hours): maintains good patient liver function
- renal function by creatinine levels (first 24 hours): maintains normal renal function
- left ventricular function (left ventricular ejection fraction) (first 48 hours): maintenance
- troponin levels compared to placebo (first 48 hours): tends to decrease
- T3 levels in blood (first 48 hours, high dose i.v.): increased as expected
